Laboratory results published in patent US4027005A, “Diagnostic agents” (New England Nuclear Corporation, priority 1974, dated 1977).

What was measured:
[1] = test system: infarcted myocardial tissue; experiment: Infarction tests: accumulation in infarcted myocardial tissue; assay type: in vivo, rat; settings: 60 min
Description: The technetium-99m-stannous-glucoheptonate agent of Example 1, supra is compared with a technetium-99m-stannous-tetracycline agent, see Holman et al, supra, for effectiveness in preferentially accumulating in infarcted, rather than normal, myocardial tissue. In each case a myocardial infarct is produced in adult rats by surgery. In Example 9, doses of about 3-5 mCi each of the glucoheptonate and tetracycline agents respectively are injected three hours after infarct was induced. The animals are sacrificed one hour after injection and the heart removed. The infarcted tissue, which is visibly distinguishable from normal myocardial tissue, was excised, weighed and counted. The normal myocardial tissue was also weighed and its activity counted and the results are reported as the ratio of the activity per gram of the infarcted tissue to the activity per gram of the normal tissue (A), and the ratio of the activity per gram of the infarcted tissue to activity per gram in the blood (B). Example 10 reports similar results, the difference being that in that example the radionuclides were injected into the live rats eighteen hours after the infarct was induced, rather than three hours.

[2] = prior art; cited from earlier work

technetium-99m-stannous-tetracycline [Tetracycline complex, reference compound]
ratio B: activity per gram of infarcted tissue to activity per gram in the blood ([1]; Example 9: rat, injected three hours after infarct, sacrificed one hour after injection): 2.5 | ratio B: activity per gram of infarcted tissue to activity per gram in the blood ([1]; Example 10: rat, injected eighteen hours after infarct): 2.0 | accumulation, retention or elimination of prior agents (in words) [2]: Neighboring organ uptake was also a problem
